# High-throughput results from PubChem BioAssay.
# This excerpt belongs to a sample that is enriched for hits.
# HCMV UL50-53 inh – cytomegalovirus nuclear egress complex inhibition; AID 1918969; HTRF UL50-UL53 interaction, normalized percent inhibition; inhibition, % (no concentration beside the values); 190,000 compounds, 0.15% hits; in the data active means inhibition above about 27%, passing the limit was not always enough
# GIV Gai3 FP – inhibitors of GIV GBA-motif binding to rat Galpha-i3; P08753; Galpha-i3/FITC-GIV peptide fluorescence polarization, 90 min; active compounds read low; scaled: aluminum fluoride 0%, vehicle 100%; percent of control (FP), % (concentration not given with the values); 210,000 compounds, 0.42% hits; AID 1224905;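 active means replicate mean at 85% of control or lower, very high polarization wells dropped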;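 further: wells of about 15 µL received 100 nL stock; the first replicate is given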
# GIV Gai FP conf – confirmation of inhibitors of GIV binding to rat Galpha-i3. shares compounds with GIV Gai3 FP. fluorescence polarization, mP at 100 µM. 580 compounds, 38% hits. FITC-GIV peptide binding to Galphai3, fluorescence polarization; stronger effect = lower value;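 active means inhibition score of 15 or more, meaning 100 minus mean polarization as percent of control over three replicates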
# GIV Gai AS conf – confirmation of inhibitors of GIV binding to human Galpha-i3. shares compounds with GIV Gai3 FP. AlphaScreen Galphai3-GIV binding, purified proteins, 90 min; stronger effect = lower value. AlphaScreen counts at 100 µM. 580 compounds, 39% hits. AID 1259351;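 active means inhibition score at or above a set limit, where the score is 100 minus the three-replicate mean percent of control signal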
# The depositor's hits bear a star; . = no result given; ! = not active in a repeat.
# Screens by letter: A = HCMV UL50-53 inh; B = GIV Gai3 FP; C = GIV Gai FP conf; D = GIV Gai AS conf
Cc1ccc(C)n1-c1ccc(C(=O)O)cc1O
  A: 56*; B: 31*; C: 50*; D: 3903*
Cc1ccc(C)n1-c1ccsc1C(=O)O
  A: -20; B: 65*; C: 11*; D: 1766*
Cc1cc(=O)cc(C)n1-c1ccccc1O
  A: -3; B: .; C: .; D: .
Cc1ccc(C(=O)O)cc1-n1c(C)ccc1C
  A: -3; B: 67*; C: 54*; D: 3689*
Cc1cc(C)n(-c2cc(C(=O)O)ccc2C)n1
  A: 21; B: 100; C: .; D: .
COc1ccc(C)c2sc(=NC(=O)C3CC3)n(C)c12
  A: -25; B: 104; C: .; D: .
CC(OC(=O)C12CC3CC(CC(O)(C3)C1)C2)C(=O)N(C)c1ccccc1 (stereo not drawn)
  A: -13; B: .; C: .; D: .
Cc1cc(C(=O)OCC(=O)Nc2ccccc2)c(C)n1-c1ccccc1
  A: -32; B: .; C: .; D: .
CC(CCc1ccccc1)NC(=O)CSc1cn[nH]n1 (stereo not drawn)
  A: -1; B: 100; C: .; D: .
CC(=O)n1c(=O)c2ccccc2c(=O)n1-c1ccccc1
  A: -15; B: 79*!; C: 52*; D: 2364*
CNC(=O)c1cn(-c2ccccc2)c(=O)c2ccccc12
  A: 0; B: 104; C: .; D: .
CCN(CC)C(=O)c1cc2ccccc2oc1=O
  A: -20; B: 103; C: .; D: .
CC1CC(C)CN(c2cnnc3c(Cl)cccc23)C1 (stereo not drawn)
  A: -92; B: 105; C: .; D: .
Clc1cccc2c(N3CCCCCC3)cnnc12
  A: -105; B: 83*; C: 72; D: 33684
Oc1oc(-c2ccco2)nc1/C=N/c1ncn[nH]1
  A: 4; B: 104; C: .; D: .
CC(C)NS(=O)(=O)c1ccc(OCC(=O)NC2CCCCC2)c(Cl)c1
  A: -3; B: 103; C: .; D: .
CCOc1ccc2c(c1)c1nnc(-c3ccccc3)c-1cn2Cc1ccccc1
  A: -34; B: 71*; C: 64; D: 45947
c1ccc(Cn2cc3c(-c4ccccc4)nnc-3c3ccccc32)cc1
  A: -60; B: 110; C: .; D: .
CC(C)NC(=O)C(C)n1ncn2cccc2c1=O (stereo not drawn)
  A: .; B: 103; C: .; D: .
Cc1ccccc1-c1nnc(SCC(=O)NC(=O)Nc2ccccc2F)n1C
  A: -16; B: .; C: .; D: .
C=CCN1C(=O)S/C(=C/c2ccc(N3CCOCC3)cc2)C1=O
  A: -24; B: 95; C: 87; D: 44529
O=C1S/C(=C\c2ccccc2)C(=O)N1CN1CCOCC1
  A: -46; B: 97; C: .; D: .
CCS(=O)(=O)N1CCCN(C(=O)C2CCC2)CC1
  A: .; B: 106; C: .; D: .
S=C1NCc2ccsc2S1
  A: -242; B: 49*; C: 51*; D: 31760*
O=C(O)CC(C(=O)O)N1C(=O)/C(=C\c2ccco2)SC1=S (stereo not drawn)
  A: -20; B: 86; C: 53*; D: 3647*

# More entries
# Screens by letter: A = HCMV UL50-53 inh; B = GIV Gai3 FP; C = GIV Gai FP conf; D = GIV Gai AS conf
O=C(O)C(Cc1ccccc1)N1C(=O)/C(=C\c2ccco2)SC1=S (stereo not drawn)
  A: -23; B: 91; C: .; D: .
N/C(CN1CCSCC1)=N\OCc1c(Cl)cccc1Cl
  A: -39; B: 101; C: .; D: .
Cc1cc(OCc2nc(CC(=O)NCC(C)C)cs2)ccc1Cl
  A: -19; B: 96; C: 69; D: 41855
Cc1cc(OCc2nc(CC(=O)NC3CC3)cs2)ccc1Cl
  A: -13; B: 123; C: .; D: .
O=C(/C=C/Sc1ccccn1)c1ccccc1
  A: -10; B: 86; C: 63; D: 40583
O=C(/C=C/Sc1nc2ccccc2o1)c1ccccc1
  A: -22; B: 101; C: .; D: .
CCOC(=O)C1CCN(C(=O)c2snc3c(=O)n(CC(C)C)c(=O)[nH]c23)CC1
  A: .; B: 99; C: .; D: .
Cc1ccc2nc(COCC(=O)O)[nH]c2c1
  A: -21; B: 98; C: .; D: .
CCc1ccc(N=C2NC(=O)/C(=C/c3cc(C)n(CC)c3C)S2)cc1
  A: -15; B: 119; C: .; D: .
Cc1cc(/C=C2\SC(=Nc3ccccc3)NC2=O)c(C)n1-c1ccccc1
  A: -25; B: 90; C: 71; D: 42209
CCC(=O)Nc1cc(Cl)ccc1OCc1cc(=O)n2cc(C)sc2n1
  A: .; B: 108; C: .; D: .
COc1ccc(CCNC(=O)CCc2nnc3n(C)c(=O)c4sccc4n23)cc1OC
  A: -5; B: 113; C: .; D: .
C=CCSc1nnc2c(n1)[nH]c1ccccc12
  A: -34; B: 103; C: .; D: .
C=CCNc1nc2c([nH]c3ccccc32)s1
  A: .; B: 87; C: 56*; D: 13174*
COc1cc(OC)c(NC(=O)c2sc3ncn(CC(=O)Nc4ccc(C)c(Cl)c4)c(=O)c3c2C)cc1Cl
  A: .; B: 107; C: .; D: .
CC1(C)CC2(CCCN(C(=S)Nc3ccccc3)C2)CCO1 (stereo not drawn)
  A: .; B: 90; C: 68; D: 33599
CC1(C)CC2(CCCN(CCC(O)(c3ccccc3)c3ccccc3)C2)CCO1 (stereo not drawn)
  A: -2; B: .; C: .; D: .
CCN1C(=O)c2cccc3c(NC(=S)NC(=O)c4ccc(S(=O)(=O)N5CCCC5)cc4)ccc1c23
  A: .; B: 107; C: .; D: .
CCN1C(=O)c2cccc3c(NC(=O)c4ccc(S(=O)(=O)N5CCCC5)cc4)ccc1c23
  A: .; B: 89; C: 79; D: 47241
Cc1cc(C(F)(F)F)c2c(N)c(C(=O)Nc3cccc(C(F)(F)F)c3)sc2n1
  A: .; B: 82*; C: 63; D: 56533
CCc1nc2sc(C(=O)Nc3cccc(C(F)(F)F)c3)c(N)c2cc1C
  A: .; B: 108; C: .; D: .

# An excerpt of these results, with values under each structure.
# Values run as follows: HCMV UL50-53 inh	GIV Gai3 FP	GIV Gai FP conf	GIV Gai AS conf
CCc1ccc(N=C2NC(=O)/C(=C/c3cc(C)n(CC)c3C)S2)cc1
    -15	119	.	.
CCN1C(=O)c2cccc3c(NC(=O)c4ccc(S(=O)(=O)N5CCCC5)cc4)ccc1c23
    .	89	79	47241
CC(OC(=O)C12CC3CC(CC(O)(C3)C1)C2)C(=O)N(C)c1ccccc1 (stereo not drawn)
    -13	.	.	.
